Patent US11780821B2, “Inhibitors of fibroblast activation protein” (Praxis Biotech LLC, priority 2017, dated 2023)

Amino acid sequences for entries named in this document (tags omitted). Residues count along the entry.
UniProt Q12884, whole entry: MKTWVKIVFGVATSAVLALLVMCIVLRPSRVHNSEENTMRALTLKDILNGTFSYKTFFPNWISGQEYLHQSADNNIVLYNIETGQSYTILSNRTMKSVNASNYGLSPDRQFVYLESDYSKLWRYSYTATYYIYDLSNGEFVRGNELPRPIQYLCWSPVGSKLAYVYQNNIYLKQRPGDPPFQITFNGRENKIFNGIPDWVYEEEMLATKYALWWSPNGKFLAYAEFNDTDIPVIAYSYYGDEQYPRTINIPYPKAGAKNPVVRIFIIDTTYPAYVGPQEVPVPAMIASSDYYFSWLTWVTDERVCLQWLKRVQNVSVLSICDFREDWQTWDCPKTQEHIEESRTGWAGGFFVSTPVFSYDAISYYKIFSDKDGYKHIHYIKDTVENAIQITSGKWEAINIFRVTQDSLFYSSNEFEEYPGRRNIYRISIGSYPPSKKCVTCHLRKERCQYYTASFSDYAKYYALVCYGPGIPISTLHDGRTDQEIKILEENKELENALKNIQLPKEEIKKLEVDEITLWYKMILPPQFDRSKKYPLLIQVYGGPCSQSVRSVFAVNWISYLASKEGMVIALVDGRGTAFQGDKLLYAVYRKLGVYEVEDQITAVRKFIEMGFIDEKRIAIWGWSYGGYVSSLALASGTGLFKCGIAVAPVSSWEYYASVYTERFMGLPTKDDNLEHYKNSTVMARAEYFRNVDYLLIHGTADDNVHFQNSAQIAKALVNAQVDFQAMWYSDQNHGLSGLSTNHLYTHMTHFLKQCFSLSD
UniProt Q12884, 24-760 limits assumed: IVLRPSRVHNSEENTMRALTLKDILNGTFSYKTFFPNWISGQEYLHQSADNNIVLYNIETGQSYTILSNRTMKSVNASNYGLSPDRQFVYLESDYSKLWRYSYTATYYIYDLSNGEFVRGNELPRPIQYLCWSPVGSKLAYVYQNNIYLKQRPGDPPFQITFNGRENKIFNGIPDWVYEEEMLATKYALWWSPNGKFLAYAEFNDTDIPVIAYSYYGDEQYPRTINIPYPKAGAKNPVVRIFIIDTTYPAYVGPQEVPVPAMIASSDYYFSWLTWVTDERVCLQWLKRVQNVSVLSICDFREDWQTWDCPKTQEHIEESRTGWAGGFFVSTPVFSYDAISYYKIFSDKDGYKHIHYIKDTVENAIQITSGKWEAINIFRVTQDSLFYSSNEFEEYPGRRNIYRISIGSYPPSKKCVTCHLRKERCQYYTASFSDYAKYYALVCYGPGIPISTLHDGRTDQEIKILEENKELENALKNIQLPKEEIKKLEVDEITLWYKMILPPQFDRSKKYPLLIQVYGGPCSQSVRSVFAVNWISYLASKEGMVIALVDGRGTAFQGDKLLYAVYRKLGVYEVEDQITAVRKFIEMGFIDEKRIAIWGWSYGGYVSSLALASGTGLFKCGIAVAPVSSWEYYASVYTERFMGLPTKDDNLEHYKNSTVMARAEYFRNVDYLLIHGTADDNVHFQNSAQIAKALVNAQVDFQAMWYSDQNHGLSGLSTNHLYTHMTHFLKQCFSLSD
UniProt Q86TI2, whole entry: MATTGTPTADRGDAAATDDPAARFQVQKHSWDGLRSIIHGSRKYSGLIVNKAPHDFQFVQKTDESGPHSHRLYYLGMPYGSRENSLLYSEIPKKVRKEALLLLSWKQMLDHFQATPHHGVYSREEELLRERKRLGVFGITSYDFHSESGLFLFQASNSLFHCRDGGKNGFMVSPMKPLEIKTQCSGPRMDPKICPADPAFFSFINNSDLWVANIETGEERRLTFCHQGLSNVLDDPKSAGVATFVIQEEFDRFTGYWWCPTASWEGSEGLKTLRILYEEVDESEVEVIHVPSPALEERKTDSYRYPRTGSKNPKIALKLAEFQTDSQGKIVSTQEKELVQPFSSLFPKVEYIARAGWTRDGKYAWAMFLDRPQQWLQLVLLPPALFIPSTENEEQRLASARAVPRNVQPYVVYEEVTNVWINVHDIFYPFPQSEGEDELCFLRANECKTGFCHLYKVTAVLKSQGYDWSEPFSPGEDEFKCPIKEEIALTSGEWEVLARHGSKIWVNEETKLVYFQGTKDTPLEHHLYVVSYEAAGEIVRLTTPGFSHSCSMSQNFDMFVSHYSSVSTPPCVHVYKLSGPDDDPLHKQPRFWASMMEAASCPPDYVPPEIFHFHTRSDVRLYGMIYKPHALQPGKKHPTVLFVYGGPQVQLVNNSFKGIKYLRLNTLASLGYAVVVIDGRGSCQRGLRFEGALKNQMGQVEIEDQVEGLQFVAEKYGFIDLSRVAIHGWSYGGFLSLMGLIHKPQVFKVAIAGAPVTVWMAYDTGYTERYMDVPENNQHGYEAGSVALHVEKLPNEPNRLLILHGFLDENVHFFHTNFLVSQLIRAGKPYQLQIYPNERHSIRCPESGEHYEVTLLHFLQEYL

What was measured:
[1] = molecular target: recombinant human FAPα (rhFAPα) (Homo sapiens, UniProt Q12884); test: FAPα enzymatic exopeptidase (dipeptidase) activity assay; assay type: biochemical; settings: for rhFAPα (% exo inh @ 1 μM): 1 μM test compound, Z-Gly-Pro-AMC substrate; for IC50: read-out: rhFAPα (exo IC50), exopeptidase
[2] = molecular target: recombinant human DPP9 (rhDPP9) (Homo sapiens, UniProt Q86TI2); test: DPP9 enzymatic activity assay; assay type: biochemical; settings: read-out: rhDPP9 (IC50); H-Gly-Pro-AMC substrate
[3] = molecular target: circulating FAPα from human plasma (Homo sapiens, UniProt Q12884); test: Ex vivo inhibition of circulating FAPα activity from human plasma; settings: read-out: FAPα activity in human plasma (PRXS-AMC) IC50, PRXS-AMC substrate

| Structure (SMILES) | rhFAPα (% exo inh @ 1 μM) [1] | IC50 ([1]; Table 2, Z-Gly-Pro-AMC) [nM] | IC50 ([1]; Table 3) [nM] | IC50 [2] [nM] | IC50 [3] [nM] |
| --- | --- | --- | --- | --- | --- |
| CC(c1ccccc1)c1cnccc1C(=O)NCC(=O)N1CC(F)(F)C[C@H]1C#N (single isomer, unassigned) [First eluting isomer of example 74] | +++ (+++ refers to > 50% inhibition at 1 μM test compound) | < 1000 | < 1000 | 1000 to 10000 | < 1000 |
| CC(c1ccccc1)c1cnccc1C(=O)NCC(=O)N1CC(F)(F)C[C@H]1C#N (single isomer, unassigned) [Second eluting isomer of example 74] | +++ (+++ refers to > 50% inhibition at 1 μM test compound) | 1000 to 10000 | 1000 to 10000 | 1000 to 10000 | – |

Like-named read-outs stand apart in the source and are kept apart here.
